According to US20080085893A1, “MATRIX METALLOPROTEASE INHIBITORS” (priority 2006, published 2008):

Biological target: T1, human MMP-2 (amino acids 1-660) (Homo sapiens, UniProt P08253)
T1 construct: human MMP-2 (amino acids 1-660); made in house
T1 sequence (P08253 110-660): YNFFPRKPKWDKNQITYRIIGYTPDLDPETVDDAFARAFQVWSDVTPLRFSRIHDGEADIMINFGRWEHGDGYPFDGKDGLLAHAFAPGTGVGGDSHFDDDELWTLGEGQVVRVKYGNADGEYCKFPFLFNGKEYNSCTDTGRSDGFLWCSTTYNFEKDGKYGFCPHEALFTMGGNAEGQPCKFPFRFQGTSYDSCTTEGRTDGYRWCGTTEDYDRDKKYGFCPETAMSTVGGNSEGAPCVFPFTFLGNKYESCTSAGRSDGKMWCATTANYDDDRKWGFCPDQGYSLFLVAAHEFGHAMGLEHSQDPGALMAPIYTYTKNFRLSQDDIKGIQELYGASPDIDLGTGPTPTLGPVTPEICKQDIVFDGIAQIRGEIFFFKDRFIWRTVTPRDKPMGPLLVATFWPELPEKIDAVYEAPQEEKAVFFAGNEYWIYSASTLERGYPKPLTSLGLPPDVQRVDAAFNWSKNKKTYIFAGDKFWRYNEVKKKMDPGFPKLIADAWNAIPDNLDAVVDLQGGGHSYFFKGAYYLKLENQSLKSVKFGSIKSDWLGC
Assay: MMP dose response assay for determining IC50, MMP-2
Type: biochemical
Settings: recombinant enzyme, fluorescent-quench substrate 100 nM
Protocol: MMP Dose Response Assay for Determining IC50
The following method was used for determining IC50 values of different inhibitor compounds against multiple MMP enzymes. Frozen stocks of recombinantly produced MMPs were prepared in assay buffer (50 mM HEPES pH 7.4, 10 mM CaCl2, 0.05% Brij-35). […] Enzyme concentrations in the assay were determined empirically and set such that proteolytic activity was maintained in a linear range over the time-course of the experiment. […] Each concentration for each test compound was tested in triplicate. MMP enzymes were equilibrated with compounds for 1 hour at room temperature, then a fluorescent-quench substrate (Acetyl-Cys(Eu)-Pro-Leu-Gly-Leu-Lys-(QSY7)-Ala-Arg-amide) was added to a final concentration of 100 nM. […] Data was analyzed by first calculating average background value from wells that contained only substrate, and this value was subtracted from the entire plate. The 100%, or maximum value, was determined by averaging control wells that contained enzyme, substrate and DMSO. For each well, the percent of control was calculated by dividing the well value by the average DMSO value obtained above.

IC50: 2.54 µM
SMILES: CS(=O)(=O)N(C[C@H](O)C(=O)NO)c1ccc(Oc2ccc(C(F)(F)F)cn2)cc1 [Example 53, N-Hydroxy (2S)-2-hydroxy-3-{N-{4-[(5-trifluoromethylpyridin-2-yl)oxy]phenyl},N-methanesulfonylamino}propionamide]
